Experimental data published in paper PMC5209244 (Bioorganic & medicinal chemistry, 2016).

Sequences of proteins named here, by UniProt entry; tags and fusion partners are left off.
UniProt P28223, whole entry: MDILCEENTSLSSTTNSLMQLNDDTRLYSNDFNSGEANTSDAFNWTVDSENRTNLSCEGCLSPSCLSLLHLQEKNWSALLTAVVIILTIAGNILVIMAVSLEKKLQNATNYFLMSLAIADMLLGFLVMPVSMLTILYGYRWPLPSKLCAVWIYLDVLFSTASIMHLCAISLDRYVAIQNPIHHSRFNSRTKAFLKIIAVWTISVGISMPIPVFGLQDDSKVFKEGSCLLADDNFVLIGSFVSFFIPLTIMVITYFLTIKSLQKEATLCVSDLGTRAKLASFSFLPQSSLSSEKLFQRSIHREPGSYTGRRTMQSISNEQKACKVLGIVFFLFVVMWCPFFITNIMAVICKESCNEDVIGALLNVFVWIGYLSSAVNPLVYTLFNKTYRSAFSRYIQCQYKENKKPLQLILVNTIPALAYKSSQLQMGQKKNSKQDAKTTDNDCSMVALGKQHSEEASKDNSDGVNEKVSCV

Target: 5-HT2AR (Homo sapiens, UniProt P28223)
Assay: NIMH-PDSP radioligand binding, 5-HT2A receptor

O=C1NCN(c2ccccc2)C12CCN(CCCCc1nc3cc(Cl)ccc3s1)CC2 [Compound 8, 8-(4-(5-chlorobenzo[d]thiazol-2-yl)butyl)-1-phenyl-1,3,8-triazaspiro[4.5]decan-4-one]
pKi ± SE 5-HT2A: 5.8±0.1
